Values of other authors, collected in paper PMC9997069 (Molecular Pharmaceutics, 2023).

Protein sequences, listed by entry. Tags and fused reporters are not part of them. Residues count along the entry.
UniProt P02768, 25-609: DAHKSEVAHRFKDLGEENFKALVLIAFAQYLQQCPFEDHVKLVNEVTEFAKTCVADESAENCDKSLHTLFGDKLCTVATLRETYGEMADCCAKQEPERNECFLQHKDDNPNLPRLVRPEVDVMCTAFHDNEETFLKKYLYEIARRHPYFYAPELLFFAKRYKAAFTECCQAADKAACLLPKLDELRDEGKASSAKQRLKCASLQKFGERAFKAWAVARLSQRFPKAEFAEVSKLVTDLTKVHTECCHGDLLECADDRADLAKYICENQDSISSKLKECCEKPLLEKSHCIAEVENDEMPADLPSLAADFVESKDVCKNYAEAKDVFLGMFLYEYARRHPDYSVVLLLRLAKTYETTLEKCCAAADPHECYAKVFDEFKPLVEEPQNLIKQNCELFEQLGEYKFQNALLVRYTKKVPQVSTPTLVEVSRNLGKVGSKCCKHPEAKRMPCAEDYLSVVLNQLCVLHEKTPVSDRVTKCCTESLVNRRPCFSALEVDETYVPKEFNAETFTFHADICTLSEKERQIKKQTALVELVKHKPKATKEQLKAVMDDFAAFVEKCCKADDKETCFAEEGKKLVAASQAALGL

Molecular target: T1, HSA (Homo sapiens, UniProt P02768)
T1 construct: purchased Sigma-Aldrich
Settings: 308 K; cited from earlier work

CNC(=O)c1ccccc1Sc1ccc2c(/C=C/c3ccccn3)n[nH]c2c1 [axitinib]
binding constant to HSA: 9.7 × 10^4 M^–1
